The results in this text go back to patent US6916905B2, “Dmt-Tic di-and tri-peptidic derivatives and related compositions and methods of use” (The United States of America as represented by the …, priority 2000, dated 2005).

Protein sequences, listed by entry. Tags and fused reporters are not part of them. Lines headed by an entry give the natural chain unless they say otherwise; changes in a name come on top.
UniProt P33533, whole entry: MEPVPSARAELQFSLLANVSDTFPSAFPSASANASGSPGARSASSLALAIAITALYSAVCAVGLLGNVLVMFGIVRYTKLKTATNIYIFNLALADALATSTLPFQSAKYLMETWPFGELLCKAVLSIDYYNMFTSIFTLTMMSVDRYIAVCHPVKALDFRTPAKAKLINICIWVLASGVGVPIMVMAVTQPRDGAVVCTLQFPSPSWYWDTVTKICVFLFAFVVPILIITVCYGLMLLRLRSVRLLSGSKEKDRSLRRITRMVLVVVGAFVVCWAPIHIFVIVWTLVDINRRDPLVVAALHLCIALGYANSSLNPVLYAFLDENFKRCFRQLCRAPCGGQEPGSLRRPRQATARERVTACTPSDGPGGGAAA

Experiment [1] addresses T1, δ-opioid receptors (Rattus norvegicus, UniProt P33533).
T1 construct: assayed with a rat brain synaptosomal preparation (P2); from tissue; host or cells: rat brain P2 synaptosomes
In words: Rat brain synaptosome (P2) binding, agonist [3H]DPDPE (Example 47). The conditions noted are these: rat brain synaptosomes (P2); mean ± SEM, n in parentheses; read-out: Kiδ(nM) [^3H]DPDPE.

Experiment [2] addresses T1, δ-opioid receptors. In words: Rat brain synaptosome (P2) binding, δ antagonist [3H]N,N(CH3)2-Dmt-Tic-OH (Example 47). The conditions noted are these: rat brain synaptosomes (P2); δ antagonist radioligand; mean ± SEM, n in parentheses; read-out: Kiδ(nM) [^3H]N,N(CH3)2-Dmt-Tic-OH.

Regarding `Cc1cc(O)cc(C)c1CC(N)C(=O)N1Cc2ccccc2C[C@H]1C(=O)O` (stereo partly drawn) [H-(R,S)Dmt-Tic-OH, reference compound], the results for the Ki in experiment [1] and in experiment [2] were 0.46 ± 0.001 nM and 0.8 ± 0.19 nM, respectively.
